Target: human H3 receptor (Homo sapiens, UniProt Q9Y5N1)
Assay: cAMP quantification assay for human H3 receptor (DiscoveRx cAMP XS+)
Conditions: read-out: Potency Range (IC50 values); CHO-K1 cells expressing human H3 receptors; inhibition of agonist-induced cAMP decrease; 100 nM histamine, 10 μM forskolin

The chains behind the UniProt entries cited, without tags or fusion partners. Where a name states a change or a piece, a line headed by the entry shows the natural chain unless it says otherwise.
UniProt Q9Y5N1: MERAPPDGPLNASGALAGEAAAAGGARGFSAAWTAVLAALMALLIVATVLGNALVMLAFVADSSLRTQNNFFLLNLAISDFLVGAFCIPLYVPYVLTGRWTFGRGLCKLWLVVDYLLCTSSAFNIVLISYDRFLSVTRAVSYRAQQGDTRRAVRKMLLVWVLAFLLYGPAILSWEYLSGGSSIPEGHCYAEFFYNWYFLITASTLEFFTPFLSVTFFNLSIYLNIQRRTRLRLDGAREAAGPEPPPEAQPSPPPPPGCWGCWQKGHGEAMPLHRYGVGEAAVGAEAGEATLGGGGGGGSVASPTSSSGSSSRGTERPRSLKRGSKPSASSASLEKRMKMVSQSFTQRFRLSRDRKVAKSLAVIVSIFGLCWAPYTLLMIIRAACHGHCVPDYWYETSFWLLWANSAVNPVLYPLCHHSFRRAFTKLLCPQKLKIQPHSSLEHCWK

## Cc1ccc(OC(=O)N2CC(C(=O)N3CCCN(C4CCC4)CC3)C2)cn1
  IC50: < 50 nM

— patent publication US8912176B2 (Evotec AG, priority 2009, dated 2014)
